Source: ChEMBL document CHEMBL1156598, “Synthesis, biological evaluation, and molecular modeling of abiraterone analogues: novel CYP17 inhibitors for the treatment of prostate cancer” (J Med Chem, 2008)

By UniProt entry, the sequences of proteins in these tests, tags left out.
UniProt P08684, whole entry: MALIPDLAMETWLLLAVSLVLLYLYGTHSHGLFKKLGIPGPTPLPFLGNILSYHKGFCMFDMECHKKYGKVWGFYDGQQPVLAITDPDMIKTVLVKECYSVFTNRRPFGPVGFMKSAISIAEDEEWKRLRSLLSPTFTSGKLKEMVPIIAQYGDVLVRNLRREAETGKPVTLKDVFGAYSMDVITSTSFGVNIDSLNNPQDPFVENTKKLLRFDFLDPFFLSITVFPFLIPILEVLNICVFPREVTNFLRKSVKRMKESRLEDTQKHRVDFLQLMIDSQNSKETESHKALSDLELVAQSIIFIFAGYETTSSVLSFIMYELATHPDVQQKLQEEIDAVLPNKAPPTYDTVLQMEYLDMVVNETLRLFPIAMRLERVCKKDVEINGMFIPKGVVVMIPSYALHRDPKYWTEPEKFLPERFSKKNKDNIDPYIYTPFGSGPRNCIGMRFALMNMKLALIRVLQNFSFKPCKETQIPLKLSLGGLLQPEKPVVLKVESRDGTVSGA

Molecular target: Cytochrome P450 3A4 (Homo sapiens, UniProt P08684)
Experiment: Inhibition of recombinant CYP3A4 expressed in baculovirus-infected insect microsomes
Type: ADME, Microsome

IC50: 2.7 µM
SMILES: C[C@]12CC[C@H](O)CC1=CC[C@@H]1[C@@H]2CC[C@]2(C)C(c3cccnc3)=CC[C@@H]12 [ABIRATERONE]
